By EC50 is commonly meant the concentration that produces a half-maximal response.

The chains behind the UniProt entries cited, without tags or fusion partners.
UniProt P35372, whole entry: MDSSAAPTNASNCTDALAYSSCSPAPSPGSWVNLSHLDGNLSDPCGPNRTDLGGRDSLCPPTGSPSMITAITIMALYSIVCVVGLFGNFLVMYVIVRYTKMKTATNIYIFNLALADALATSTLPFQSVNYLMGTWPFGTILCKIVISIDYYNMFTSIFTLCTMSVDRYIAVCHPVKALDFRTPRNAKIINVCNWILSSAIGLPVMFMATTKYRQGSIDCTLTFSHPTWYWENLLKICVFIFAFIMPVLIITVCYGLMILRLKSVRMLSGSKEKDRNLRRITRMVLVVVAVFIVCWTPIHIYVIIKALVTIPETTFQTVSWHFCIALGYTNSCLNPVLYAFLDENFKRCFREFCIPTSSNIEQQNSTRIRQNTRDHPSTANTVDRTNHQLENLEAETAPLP

The values that follow come from ChEMBL document CHEMBL6114989, “D-morphinan analogs with favorable pharmacokinetic profiles as dual-acting antidepressants” (Eur J Med Chem, 2025).

The assay deals with Mu-type opioid receptor (Homo sapiens, UniProt P35372). Briefly: Agonist activity at human mu-opioid receptor stably expressed in CHO cells assessed as inhibition of forskolin-induced cAMP accumulation preincubated with compound for 10 mins followed by forskolin induction and measured after 30 mins by LANCE Ultra cAMP assay. It counts as functional, cell-based. A general note: Changes in cAMP serve as a functional read-out for many G protein-coupled receptors.

Each structure is given as a SMILES string.

Take `CN1CC[C@@]23CCCC[C@@H]2[C@@H]1Cc1ccc(O)cc13` [DEXTRORPHAN]: the EC50 came to 11 µM.
